## Measured affinities in a library of Ab-14 heavy chain variants

Reference: Li et al. 2023, doi:10.1038/s41467-023-39022-2. File: FLAb, binding data.

All variants were tested on one target, the spike HR2 peptide PDVDLGDISGINAS (SARS-CoV-2).

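Phage display of a naive human antibody library on the peptide gave the parent. Designed CDR sequences, proposed from the first random library and measured here. Group labels follow the data file (Ctrl: baseline library sampled from a position-specific scoring matrix, with some repeated check sequences; Rand: our label for a block that the file lists under HC and that is probably the random mutants of the ten best first-round binders; En: ensemble of fine-tuned language models; GP: Gaussian process model; GPLM: also part of the Gaussian process libraries; HC: hill climbing; Gen: genetic algorithm; Gibbs: Gibbs sampling; a sequence that several methods proposed may carry one label only). The assay is AlphaSeq: two haploid yeast populations carry antibody and antigen on their surface. After mating in shaken culture at 30 °C for 16 h, diploids were selected and their barcode pairs sequenced. Each replicate has its own calibration line, from reference interactions of the BCL2 family. Mating was done six times.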

Parent scFv Ab-14: VH joined to VL by three GGGGS repeats. Changes lie in the heavy chain CDRs alone.
VH: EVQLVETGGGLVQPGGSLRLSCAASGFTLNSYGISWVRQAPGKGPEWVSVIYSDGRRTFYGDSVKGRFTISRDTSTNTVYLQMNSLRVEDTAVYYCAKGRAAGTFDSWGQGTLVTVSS
VL: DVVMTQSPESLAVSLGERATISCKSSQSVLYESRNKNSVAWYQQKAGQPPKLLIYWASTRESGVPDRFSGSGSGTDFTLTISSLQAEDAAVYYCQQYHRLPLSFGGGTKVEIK

Changes read parent residue, position, new residue, counted from the first residue of the VH shown. Variants here have at most six changes. Kd is apparent (estimated from mating counts) and averaged on the log scale over replicates with a signal. Smaller is tighter. "nd" marks a missing value. The strain was present, yet no cells mated with the target were sequenced in any replicate, which points to weak or no binding. The authors averaged sequences with at least three values out of six and counted those with two or fewer as poor binders.

With T28E+S31T+G61S+R100E [GP_Gen] the result was 3.1 nM (6 of 6 replicates; controls 0 of 18). The variant T28S+G61S+A101S [GPLM_Gen] showed 3.1 nM (6 of 6 replicates; controls 0 of 18). The variant R56Q+G61I+R100K [GP_Gen] gave 890 pM (5 of 6 replicates; controls 0 of 18). With N30D+S35T+F59A+R100D+A101W [Ctrl] the result was nd (0 of 6 replicates; controls 0 of 18). The variant T28S+S31D+A101Q+S107A [GPLM_Gen] gave 230 pM (5 of 6 replicates; controls 1 of 18). The variant T28D+S63A+A101T [GPLM_Gibbs] showed 1.6 nM (6 of 6 replicates; controls 0 of 18). The variant T28D+A101E+A102S+T104R+S107V [Ctrl] gave 13 nM (5 of 6 replicates; controls 2 of 18). For T28N+S53A+D106T [GP_HC], the assay gave 5.7 nM (6 of 6 replicates; controls 0 of 18).

For S31D+D106V+S107Q [GPLM_HC], the assay gave nd (0 of 6 replicates; controls 0 of 18). For T28S+S31E+R100W [GPLM_Gen], the assay gave 9.0 nM (6 of 6 replicates; controls 1 of 18). With S31E+R100S+A101Q [Ctrl] the result was 1.8 nM (6 of 6 replicates; controls 0 of 18). For L29I+R56M+G61N+T104I+S107Q [Ctrl], the assay gave nd (0 of 6 replicates; controls 0 of 18). The variant G61D+R100Q+A101L+T104M+D106G [Rand] gave 11 nM (1 of 6 replicates; controls 0 of 18). With N30D+G99S+F105A+D106L [Rand] the result was 20 nM (6 of 6 replicates; controls 0 of 18). The variant S31Q+Y52F+R56P+G61S+T104F [Rand] showed nd (0 of 6 replicates; controls 0 of 18). With G26S+S53A+D106K+S107L [GP_HC] the result was nd (0 of 6 replicates; controls 0 of 18).

For R100K+A101D [Ctrl], the assay gave 99 nM (3 of 6 replicates; controls 0 of 18). The variant F27P+R56E+G103I [Ctrl] showed nd (0 of 6 replicates; controls 0 of 18). With T28E+T58A+F59M+G61S+R100Q+D106T [Ctrl] the result was nd (0 of 6 replicates; controls 0 of 18). The variant T28D+R100T+S107L [Ctrl] gave 930 pM (6 of 6 replicates; controls 0 of 18). The variant T28D+S31E+S53A+G61Q+R100Q+S107Q [En_HC] gave 460 pM (6 of 6 replicates; controls 0 of 18). With T28E+G61Q+R100K+A101E [GP_Gibbs] the result was 2.0 nM (6 of 6 replicates; controls 0 of 18). For S31E+G61I+A102D [Ctrl], the assay gave nd (0 of 6 replicates; controls 0 of 18). With N30D+F59Y+G103A+F105A+D106L [Rand] the result was nd (0 of 6 replicates; controls 0 of 18).

For T28S+G61A+S63A+R100T [GPLM_Gen], the assay gave 2.6 nM (6 of 6 replicates; controls 0 of 18). With T28D+R56H+A101E [GPLM_HC] the result was 1.6 nM (5 of 6 replicates; controls 0 of 18). The variant L29Y+S53A+F105N+D106K [Rand] showed nd (0 of 6 replicates; controls 0 of 18). The variant T28E+R100N+A101T+S107E [GP_Gibbs] gave 23 nM (5 of 6 replicates; controls 1 of 18). For N30R+A101I+F105S+D106V [Ctrl], the assay gave nd (0 of 6 replicates; controls 0 of 18). The variant T28D+S31T+G61A+R100E [GPLM_Gen] showed 1.7 nM (6 of 6 replicates; controls 0 of 18). The variant T28E+S31E+R100Q+S107L [GPLM_Gen] gave 2.6 nM (6 of 6 replicates; controls 1 of 18). The variant S31M+R56S+T58Q+A101N+T104L [Ctrl] showed nd (0 of 6 replicates; controls 0 of 18).

With T28E+S31E+A101N+S107A [GP_Gibbs] the result was 610 pM (6 of 6 replicates; controls 0 of 18). With T58F [Ctrl] the result was nd (0 of 6 replicates; controls 1 of 18). The variant L29I+N30R [Ctrl] showed nd (0 of 6 replicates; controls 0 of 18). With F27N+N30E+F105K [Ctrl] the result was nd (0 of 6 replicates; controls 0 of 18). The variant D62H+G99R [Ctrl] showed nd (0 of 6 replicates; controls 0 of 18). With T28S+S63D+R100E+S107K [GP_Gibbs] the result was 2.6 nM (6 of 6 replicates; controls 0 of 18). The variant T28H+R56M+G61V+A101Q [GP_Gibbs] showed 79 nM (3 of 6 replicates; controls 0 of 18). For G26E+T28N+A101T [GP_Gen], the assay gave nd (0 of 6 replicates; controls 0 of 18).

A selection of 5 entries from above:

changes	group	apparent Kd	seen in	signal with controls
T28H+R56M+G61V+A101Q	GP_Gibbs	79 nM	3 of 6	0 of 18
N30D+F59Y+G103A+F105A+D106L	Rand	nd	0 of 6	0 of 18
S31D+D106V+S107Q	GPLM_HC	nd	0 of 6	0 of 18
N30R+A101I+F105S+D106V	Ctrl	nd	0 of 6	0 of 18
L29I+R56M+G61N+T104I+S107Q	Ctrl	nd	0 of 6	0 of 18

A sequence measured in both rounds can read differently, since the two assays cover different ranges. Empty control strains, which show no peptide, gave a signal in 1% of pairings with all heavy chain designs; the median was 120 nM and 95% of these signals were weaker than 7.0 nM. No background was subtracted. Also given: how often the same scFv was detected with the empty control strains.